Earlier results as cited in patent EP0390112B1, “Selective adenosine receptor agents” (MERRELL PHARMACEUTICALS INC., priority 1989, dated 1990).

System: adenosine receptors
Details: in vivo; cited from earlier work

For CCCn1c(=O)c2[nH]c(-c3ccc(OCC(=O)NCCN)cc3)nc2n(CCC)c1=O [XAC, amino congener of 8-phenyl-1,3-dipropyl-xanthine], which “antagonism of the effects of adenosine analogs on heart rate versus blood pressure” value is on record?
The value was “much more potent in antagonizing the effects of adenosine analogs on heart rate than on blood pressure”.
